Counter-ions that a name gives are not always drawn.
Experiments:
kappa1 sites = target: T1, kappa1 sites (Cavia porcellus, UniProt P41144); type: binding, guinea pig; details: read-out: Ki κ1 [^3H]U69,593
T1 construct: The brains were then homogenized in 50 mM Tris HCl, buffer pH 7.7, using a Polytron; from tissue; host or cells: guinea pig brain homogenate (membrane pellet)

The chains behind the UniProt entries cited, without tags or fusion partners. Where a name states a change or a piece, a line headed by the entry shows the natural chain unless it says otherwise.
UniProt P41144: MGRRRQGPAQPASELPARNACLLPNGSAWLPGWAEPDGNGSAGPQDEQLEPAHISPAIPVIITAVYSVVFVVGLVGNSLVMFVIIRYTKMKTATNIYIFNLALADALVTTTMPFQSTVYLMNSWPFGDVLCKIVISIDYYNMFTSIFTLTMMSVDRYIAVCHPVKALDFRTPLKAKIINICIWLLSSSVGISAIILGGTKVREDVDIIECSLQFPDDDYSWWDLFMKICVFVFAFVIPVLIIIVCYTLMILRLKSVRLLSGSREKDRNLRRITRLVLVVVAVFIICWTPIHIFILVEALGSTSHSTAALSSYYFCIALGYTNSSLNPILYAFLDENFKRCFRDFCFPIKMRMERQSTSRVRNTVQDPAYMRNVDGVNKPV

kappa receptors = kappa receptors (Cavia porcellus, UniProt P41144)

CCC12CCN(CC3(O)CC3)C(Cc3ccc(O)cc31)C2(C)C (single isomer, unassigned; (+)) [(+)Bremazocine]
Ki (kappa1 sites): 0.1 nM

CCC12CCN(CC3(O)CC3)C(Cc3ccc(O)cc31)C2(C)C (single isomer, unassigned; (-)) [(−)Bremazocine]
Ki (kappa1 sites): 0.1 nM | DR with Nor-BNI (kappa receptors): 226.3 | Ke of Nor-BNI (kappa receptors): 0.09 | Ratio (after Ke of Nor-BNI) (kappa receptors): 0.445

COC(=O)/C=C/C(=O)N[C@@H]1CC[C@@]2(O)[C@H]3Cc4ccc(O)c5c4[C@@]2(CCN3CC2CC2)[C@H]1O5 [β-FNA-HCl]
Ki (kappa1 sites): 0.9 nM

From patent US6403602B1 (priority 1997, dated 2002)
